# US9149530B2, “Compositions and methods for enhancing active agent absorption” (Nexus Pharma, Inc., priority 2006, dated 2015)
# Tested on: Sprague-Dawley rats
# Test: Blood glucose depression after intracolonic bovine pancreatic insulin given with absorption enhancer
# Type: in vivo
# Conditions: n=3
smiles,measurement,value
"CCCCCCNC(=O)c1ccc(NC(=O)CCC(=O)O)cc1O [Example 16, N-n-hexyl 4-(3-carboxy-propionylamino)-2-hydroxybenzamide]","blood glucose profile, dependence on enhancer dose",increasing the dose of absorption enhancer results in greater decreases in blood glucose
